Measurements published in ChEMBL document CHEMBL1135693, “Solid-phase synthesis of polyamine toxin analogues: potent and selective antagonists of Ca2+-permeable AMPA receptors” (J Med Chem, 2002).

Assay: Ratio of Ki value at -40 mV to that of -80 mV was determined
Type: functional
Procedure, shortened: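 Ki at GluR1 flop homomers in voltage-clamped Xenopus oocytes, from inhibition of 100 µM glutamate currents by co-applied antagonist, measured at holding potentials of -40 mV and -80 mV. The ratio is Ki(-40 mV)/Ki(-80 mV). Each Ki is the mean of two independent measurements in triplicate.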

SMILES	Ratio
CCCC(=O)NC(Cc1ccc(O)cc1)C(=O)NCCCCCCCCCNCCN (configuration not stated)	15
CCCC(=O)NC(Cc1ccc(O)cc1)C(=O)NCCCCCCCCNCCCN (configuration not stated)	123
